Tested on: HCC827 ER #15
Experiment: Combined use of erlotinib and antibodies in erlotinib resistant cell line, cell number by CCK-8
Format: cell-based, human
Protocol: In the HCC827 ER #15, of which resistance to erlotinib was confirmed in Example 4, the effects of single treatments and combined treatment of erlotinib and the anti-c-Met antibody L3-1Y manufactured in the Reference Example were tested.
In a 96 well plate, diluted HCC827 ER #15 was seeded at 5000 cells/well in a […] medium (GIBCO) containing 10% FBS, and then, incubated at 37° C. overnight. On the next day, the medium was replaced with a RPMI1640 medium containing 1% FBS (GIBCO), and then, the antibody was serially diluted from 100 ug/ml, and the cells were treated therewith at 100 ul. For co-administration, the cells were treated with 10 nM or 100 nM erlotinib, together with the antibody. After 5 days, the number of cells was measured using a CCK-8 reagent (Dojindo laboratory).
Meanwhile, even when a test was conducted again while fixing the concentration of the drugs used for co-administration, the identical effects could be confirmed. The cell viability of HCC827 ER#15 is shown in FIG. 5 when the antibodies and erlotinib were co-administered while fixing the concentration of the antibodies at 0.14 μg/ml, and the concentration of erlotinib at 10 nM.

Cetuximab [reference compound]
synergistic effect of co-administration with erlotinib (HCC827 ER #15, antibody dilution series with 10 nM or 100 nM erlotinib, 5 days, FIGS. 4a-4d): synergistic effect was not observed | synergistic effects on cell viability, co-administration with erlotinib at fixed concentrations (HCC827 ER#15, antibodies 0.14 μg/ml, erlotinib 10 nM, FIG. 5): synergistic effects were not observed
